Ab-14 light chain CDR variants: yeast mating affinities

Target peptide (SARS-CoV-2 spike, HR2 region): PDVDLGDISGINAS

Parent: Ab-14, a human scFv built as VH, a (GGGGS)3 linker, VL. Only the CDRs of the light chain vary.
VH: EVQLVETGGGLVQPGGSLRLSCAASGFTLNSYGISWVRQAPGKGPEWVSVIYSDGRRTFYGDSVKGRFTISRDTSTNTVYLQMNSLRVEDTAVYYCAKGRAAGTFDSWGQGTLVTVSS
VL: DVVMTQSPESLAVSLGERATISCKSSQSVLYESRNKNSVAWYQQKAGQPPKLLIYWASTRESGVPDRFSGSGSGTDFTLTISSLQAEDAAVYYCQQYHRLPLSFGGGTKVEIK

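The parent was found by panning a naive human phage display library on the peptide. Designed CDR sequences, proposed from the first random library and measured here. Their group label is 14L_En_HC (En: ensemble of fine-tuned language models; HC: hill climbing; a sequence that several methods proposed may carry one label only). The scFvs were displayed on barcoded MATa yeast, the peptide on MATalpha yeast. After mating in shaken culture at 30 °C for 16 h, diploids were selected and their barcode pairs sequenced. Read counts were normalised to the haploid input and turned into Kd by a linear fit to BCL2-family pairs of known affinity, for each replicate. Each pool was mated in six replicate cultures.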

The parent's light chain CDRs are KSSQSVLYESRNKNSVA, WASTRES, QQYHRLPLS; each variant's own CDRs replace them letter for letter.
Affinities are written as log10 Kd with Kd in nM; a lower number is a better binder.
Replicates are averaged; those with no signal do not enter the mean.
"ND" marks a missing value. The strain was present, yet no cells mated with the target were sequenced in that replicate, which points to weak or no binding.
Of ten entries with the parent sequence, four were seen in most replicates (averages 0.34 to 2.37), three in one and three in none, so single entries are noisy.
The authors' rule: three or more of the six replicates give a measured affinity, fewer mean a poor binder.
A sequence measured in both rounds can read differently, since the two assays cover different ranges.
As a blank, each scFv also met three strains without target: over all light chain designs, 4% of these pairings were detected, typically at 2.64 and seldom below 1.59. Also given: how often the same scFv was detected with the empty control strains, with their mean in brackets.

CDR-L1	CDR-L2	CDR-L3	replicates, log10 nM	log10 Kd (nM), mean	signal with controls
KLYQATEMTSRMRNNVA	DLNERER	QQYFRLPLS	0.13 0.10 0.01 -0.15 0.56 0.06	0.12	0 of 18
TLGDVTRMESNKKSSIA	DMSNRAS	QQYHRLPIS	0.80 0.33 1.17 0.15 -0.04 0.46	0.48	0 of 18
HLGGLMTWEEKARNSVA	QQTTRAE	QQYHRLPLS	0.25 0.13 0.07 0.06 -0.03 0.23	0.12	2 of 18 (3.14)
KLSVSMLLESFHKNSVA	ENSTREE	QHYHRLPLS	ND ND ND ND ND 2.69	2.69	0 of 18
KLSMVTNSEHKVKNSIA	EMVTREK	QQYDRLPLI	0.69 0.59 0.72 1.19 0.37 0.46	0.67	1 of 18 (2.89)
MFSQSVMIGSFYQNSVA	QTSTRES	QQYDRLPLS	0.91 1.18 0.83 0.72 0.97 0.99	0.93	2 of 18 (2.75)
KISNLVNFEGKNKNSVA	QMSTREN	QQYDRLPLS	0.50 0.10 0.37 0.16 0.13 0.32	0.26	1 of 18 (2.43)
HVSESVFAQTKMKNSVA	ENSTRES	QQYDRLPLS	ND 3.15 2.39 3.19 2.18 3.14	2.81	2 of 18 (2.69)
IISQSVLGEYHNKNSVA	QTSERGQ	QQYDRLPLS	0.56 0.59 0.60 0.59 0.40 0.90	0.61	0 of 18
KITGQYRYESLSKNSIA	EAQTRLK	QQYHRLPLS	0.71 0.67 0.56 0.36 0.81 0.94	0.68	1 of 18 (2.95)
KISQSVNFLGKNKNSVA	QMSTRES	QQYDRLPLS	0.53 0.27 0.56 -0.30 -0.06 0.44	0.24	0 of 18
KISQMVWYESTWMNAIA	QTSTREE	QQYHRLPLS	0.42 0.34 0.20 0.20 0.24 0.43	0.31	0 of 18
QLGGLMTWEEKARNSVA	QQETRAE	QQYHHLPLS	0.55 0.39 0.45 0.17 0.49 0.71	0.46	2 of 18 (3.57)
TLGQVTMQLSRNKNSVA	DASTSED	QQYNRLPLS	1.42 1.01 1.34 1.60 0.97 1.33	1.28	2 of 18 (2.24)
TLGQSTLMESRNKNNVA	QMSTRES	QQYDRLPLS	-0.24 0.21 0.18 0.00 0.08 0.66	0.15	0 of 18
TISQSTYWENFNKNSVA	QTSTREE	QDYDRLPLS	ND ND ND ND ND ND	ND	1 of 18 (2.43)
QLAESAHMESRNKNSVA	DNSTRES	QHYDRLPLS	ND ND ND 1.67 ND ND	1.67	0 of 18
KLSQSQNYLSRVMNSVA	DNSTRES	QQYFRLPLS	0.81 0.49 1.04 1.21 0.90 0.60	0.84	0 of 18
KISQTFNVGTKNKNSLA	EMSTRGF	QDYHRLPLS	0.84 1.17 0.90 0.98 0.93 1.14	0.99	2 of 18 (3.18)
KIAYMGEHFSTNHSAIA	QASTREQ	QQYHRLPIS	1.09 0.80 0.91 1.24 1.19 1.12	1.06	3 of 18 (3.11)
QLSGPMMMESKNKNSVA	EFSTRGS	QQYHRLPLS	1.87 1.49 1.37 2.32 2.42 ND	1.89	0 of 18
KLSQVTHSESFNKNSIA	EMVTREV	QQYDRLPLS	0.98 0.99 0.51 1.26 0.71 1.45	0.98	0 of 18
QLYAVQDMTSKNSNNVA	EQSTRNN	QQYHRLPLS	-0.44 -0.06 0.07 -0.39 -0.05 -0.08	-0.16	0 of 18
MISDLTMYGSRNKNSVA	DLSTRGS	QQYHRLPLS	0.15 0.28 -0.02 0.27 0.12 0.47	0.21	0 of 18
MFSQLVYTGTRTKNAVA	QASTREN	QQYHRLPLS	ND ND ND 2.55 ND ND	2.55	0 of 18
KISMSVDYMSATHSSVA	QTSQREE	QQYHRLPLS	0.85 0.96 0.31 0.37 0.51 0.21	0.54	1 of 18 (1.54)
MISGSVMSESRLHNSVA	QTTTRES	QQYDRLPLS	0.82 0.70 0.99 0.53 0.46 1.18	0.78	2 of 18 (2.22)
KISMLQRFQSNSKNNIA	EMSRREE	QQYHRLPLS	2.86 2.04 2.02 1.37 2.59 1.70	2.10	0 of 18
HISEMIFAQMKMRNSVA	ENNTREA	QQYDRLPLS	ND 2.88 ND ND ND ND	2.88	0 of 18
TISQMLLMQTSHKNSVA	GEETRYQ	QQYHRLPLS	1.18 0.63 1.04 1.19 0.56 0.66	0.88	0 of 18
ILSQMLLTAGNKRNSVA	QANYRES	QQYHRLPLS	1.74 ND 1.28 1.78 2.35 1.83	1.79	0 of 18
KLLQTVMNGRYKRNNVA	HMTMRED	QQYFRLPLS	ND 2.54 ND 3.36 ND ND	2.95	0 of 18
KLSQVTHSEHRLKNSIA	EMVTREK	QQYDRLPLS	ND 1.15 1.46 0.94 1.46 0.58	1.12	1 of 18 (2.48)
NVGQSMLGESRNRNSVA	HQSTRED	QHYHRLPLS	0.60 0.73 0.98 0.99 1.01 0.82	0.86	4 of 18 (2.52)
ILSQMLLTAGNKHNSVA	QANYREE	QQYHRLPLS	1.21 1.03 1.26 1.22 1.27 1.74	1.29	1 of 18 (3.11)
NFRQMVLTGSTLKNSVA	HASTREE	QQYHRLPLI	0.88 0.36 0.46 0.60 0.44 0.50	0.54	1 of 18 (3.06)
KISASVNYEMVNGQSVA	QMSTREK	QQYDRLPLS	1.04 0.63 0.80 1.07 0.74 1.02	0.88	2 of 18 (2.61)
KLRVSTMLESHNKNSIA	DLTTRGN	QQYHRLPLS	-0.35 -0.17 0.08 -0.47 -0.19 -0.25	-0.23	1 of 18 (1.78)
HISMMVGTKGYNKNSVA	NAQTRED	QQYHRLPLS	1.17 0.70 1.22 1.22 0.81 0.82	0.99	0 of 18
KISMLYNYESVNKNSIA	EMTTREQ	QHYHRLPLS	ND ND ND ND ND ND	ND	0 of 18
HISYSMSHLSRNKNSVA	NQQTRES	QQYHRLPLS	ND ND ND ND ND ND	ND	0 of 18
KISQLVNFLGKNKNSVA	QMSTREE	QQYDRLPLS	ND 1.21 ND ND 3.23 1.41	1.95	1 of 18 (1.81)
MISDLTYYGLRNVNNVA	DLSTRGN	QQYDRLPLS	1.19 1.21 1.65 1.18 1.24 1.50	1.33	2 of 18 (2.88)
MISDLTMYGSRNKNSVA	DLSTRGS	QQYSRLPLS	1.10 0.45 1.57 1.87 1.01 1.32	1.22	0 of 18
MMTMGSLGGMRARNNVA	QEETRVK	QQYHRLPLI	1.22 2.07 0.96 1.44 1.60 1.45	1.45	1 of 18 (1.93)
ALSQSMDMTSRNINSVA	DLSTREN	QQYHRLPLS	0.23 0.13 0.24 -0.14 -0.06 0.36	0.13	1 of 18 (2.05)
KISQLVNFQGKNKNSVA	QMSTRES	QQYDRLPLS	0.27 0.05 0.02 -0.10 0.09 0.04	0.06	1 of 18 (2.41)
MISDLTMYGSRNVNSVA	DLSMRGS	QQYDRLPLS	1.68 0.83 0.68 0.72 0.59 1.01	0.92	0 of 18

Extract of 3 entries:

CDR-L1	CDR-L2	CDR-L3	replicates, log10 nM	log10 Kd (nM), mean	signal with controls
MMTMGSLGGMRARNNVA	QEETRVK	QQYHRLPLI	1.22 2.07 0.96 1.44 1.60 1.45	1.45	1 of 18 (1.93)
KLSQSQNYLSRVMNSVA	DNSTRES	QQYFRLPLS	0.81 0.49 1.04 1.21 0.90 0.60	0.84	0 of 18
NFRQMVLTGSTLKNSVA	HASTREE	QQYHRLPLI	0.88 0.36 0.46 0.60 0.44 0.50	0.54	1 of 18 (3.06)

From the AlphaSeq antibody data of Li et al. 2023 (doi:10.1038/s41467-023-39022-2), copy in the FLAb collection.